Nrf2 inh = Nrf2 pathway inhibition. A549 ARE-Fluc reporter, luciferase luminescence, 18-24 h. Potency, µM (top dose mostly 46 µM), inactives show at the highest dose activity change, negative = inhibition, most hits filed as inhibitors. 360,000 tested, 2.1% active; further: potency means the concentration at half of the fitted maximal effect; on the % scale 0 is the no-effect control and ±100 the full control effect; nearly all actives have a fitted effect of over 60% in size
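A549 ARE_Fluc cells (5000/well, 5% FBS OPTI-MEM) pre-incubated 2 h, then treated with compounds 18-24 h at 37C/5% CO2 in concentration-response. CellTiter-Fluor viability read first; BugLite luciferase luminescence after 15 min at room temperature gives Nrf2 activity.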
A549 tox-1 = A549 cytotoxicity, counter-screen for Nrf2 inhibitors. 390,000 tested, 0.16% active. AID 504648. Potency, µM (series often up to 46 µM), for the others: top-dose activity change, negative = cytotoxicity, usual class: inhibitors. A549 ARE-Fluc cells, CellTiter-Fluor viability, 18-24 h; further: potency means the concentration at half of the fitted maximal effect; on the % scale 0 is the no-effect control and ±100 the full control effect
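A549 ARE-Fluc cells in 5% FBS OPTI-MEM, 5000 cells/well, rested 2 h then exposed to compounds in concentration-response for 18-24 h at 37 °C. Viability by CellTiter-Fluor fluorescence (Ex 405/Em 525) after 30 min; luciferase luminescence (BugLite, 15 min, RT) read afterwards.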
Nrf2 ARE act = activates Nrf2 signaling | AREc32 ARE-luciferase reporter (MCF7-derived line), luminescence, 24 h | Potency, µM (titrated, usually from 46.1 µM), for the others: at the highest dose activation, usual class: activators | 410,000 tested, 0.31% active; further: potency means the concentration at half of the fitted maximal effect; % of control where 0% means no effect; nearly all actives have a fitted effect of over 65% in size
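ARE-driven firefly luciferase activity in AREc32 cells measured after a 24 hr compound exposure at 37 deg C, using Steady-Glo reagent and a 30 min room-temperature hold.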
Mito fusion yeast = blocks mitochondrial division or promotes mitochondrial fusion. S. cerevisiae fusion-defective mutant growth rescue, CellTiterGlo 48 h. Potency, µM (highest dose often 46.1 µM), inactives show top-dose growth rescue (activation), usual class: activators. 320,000 tested, 0.23% active. AID 485298; further: potency means the concentration at half of the fitted maximal effect; % of control where 0% means no effect; nearly all actives have a fitted effect of over 45% in size
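Growth-rescue viability read-out: after 48 h at the non-permissive 37C in glycerol/ethanol YPEG, yeast mitochondrial fusion mutants are measured by CellTiterGlo luminescence; compounds (23 nl pinned per well) restoring growth score as division inhibitors or fusion activators.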
miR-21 FLuc = raises the signal of a miR-21 reporter | Potency, µM (doses to about 38.3 µM), for inactives: top-dose reporter change, positive = more light | HeLa miR-21 FLuc reporter, luciferase, 48 h | AID 2288 | 340,000 tested, under 10 active; active = well fitted rising curve with a large enough effect; inconclusive = small, poorly fitted or top-dose-only effect; inactive = no such curve, though single readings can be large or run the other way;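 also: % of control where 0% means no effect; miR-21 action dims this reporter so a rising signal means less miR-21 action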
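HeLa miR-21-FLuc reporter line, endogenous miR-21; 2000 cells/well in DMEM/10% FBS; compound titration up to ~40uM final, 48 h, 37 degree Celsius; luciferase detection reagent, 15 min lysis, CCD luminescence.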
FLuc counter 3 = blocks purified firefly luciferase in Nrf2 counterscreen | shares compounds with Nrf2 inh | purified firefly luciferase, luminescence inhibition | Potency, µM (highest dose often 57.5 µM), for the others: at the highest dose activity change, negative = inhibition, actives largely listed as inhibitors | 1,400 tested, 4% active; further: potency means the concentration at half of the fitted maximal effect; on the % scale 0 is the no-effect control and ±100 the full control effect; nearly all actives have a fitted effect of over 65% in size
A549 tox-2 = A549 cytotoxicity, Nrf2 inhibitor counterscreen; A549 ARE-Fluc cells, cytotoxicity counterscreen; Potency, µM (doses to about 46.1 µM), for inactives: at the top dose activity change, negative = cytotoxicity, most hits filed as inhibitors; shares compounds with Nrf2 inh; AID 720523; 1,400 tested, 2% active;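 further: potency means the concentration at half of the fitted maximal effect; cells exposed to compounds for 18 to 24 hours; on the % scale 0 is the no-effect control and ±100 the full control effect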
ARE-Fluc inh = reduces Nrf2 ARE reporter signal in A549 cells; shares compounds with Nrf2 inh; A549 ARE-firefly luciferase reporter, luminescence; Potency, µM (titrated, usually from 46.1 µM), without a hit: at the highest dose activity change, negative = inhibition, hits mostly inhibitors; 1,400 tested, 74% active; AID 720524; further: potency means the concentration at half of the fitted maximal effect; on the % scale 0 is the no-effect control and ±100 the full control effect; nearly all actives have a fitted effect of over 65% in size
* = called active by the depositor; ? = inconclusive; . = not tested or not shown; [ ] = another dose, or the depositor's remark. In the library only some 2.3% were active in any assay of this set; here they are far more common. Unless noted, the call rests on the fitted dose curve; in most records, active means well fitted curve in the direction sought with a large enough effect; inconclusive means small, poorly fitted or top-dose-only effect, or another doubt; inactive means no such curve, though single readings can be large; an effect the other way counts as inactive or inconclusive.

The opening 4 entries, ahead of the listing:
SMILES | Nrf2 inh | A549 tox-1 | Nrf2 ARE act | Mito fusion yeast | miR-21 FLuc | FLuc counter 3 | A549 tox-2 | ARE-Fluc inh
CC(=O)c1ccc(Nc2nc3ccccc3nc2-n2nc(C)cc2C)cc1 | 14% | 5% | 0% | . | -10% | . | . | .
O=S(=O)(c1ccccc1)N1CCC(O)(CSc2ccc(Cl)cc2)CC1 | 9.2µM* | -9% | 0% | 14% | 19% | 3% | -4% | .
CC(C)CN(CC(C)C)S(=O)(=O)c1ccc(C(=O)Nc2sc3c(c2C(N)=O)CC(C)(C)NC3(C)C)cc1 | . | -1% | 6% | . | -15% | . | . | .
c1ccc(-c2nnc(-c3ccccn3)nc2NC2CCCCC2)cc1 | 1.8µM* | ? | 5% | 23% | 14% | -14% | ? | 4.1µM*

Main list, previewed entries included:
SMILES | Nrf2 inh | A549 tox-1 | Nrf2 ARE act | Mito fusion yeast | miR-21 FLuc | FLuc counter 3 | A549 tox-2 | ARE-Fluc inh
CC(=O)c1ccc(Nc2nc3ccccc3nc2-n2nc(C)cc2C)cc1 | 14% | 5% | 0% | . | -10% | . | . | .
O=S(=O)(c1ccccc1)N1CCC(O)(CSc2ccc(Cl)cc2)CC1 | 9.2µM* | -9% | 0% | 14% | 19% | 3% | -4% | .
CC(C)CN(CC(C)C)S(=O)(=O)c1ccc(C(=O)Nc2sc3c(c2C(N)=O)CC(C)(C)NC3(C)C)cc1 | . | -1% | 6% | . | -15% | . | . | .
c1ccc(-c2nnc(-c3ccccn3)nc2NC2CCCCC2)cc1 | 1.8µM* | ? | 5% | 23% | 14% | -14% | ? | 4.1µM*
Oc1ccccc1-c1nc(NC2CCCC2)c2ccccc2n1 | -16% | -6% | 4% | 15% | 14% | . | . | .
COc1cc(C(=O)N/N=C/c2ccc(OC(=O)c3ccccc3Cl)c(OC)c2)ccc1O | 1.5µM* | -2% | 3% | 6% | 4% | 0.54µM* | 2% | 0.92µM*
CCOc1ccc(C(=O)Nc2c(C(=O)Nc3ccccc3F)oc3ccccc23)cc1OCC | 1% | 5% | -1% | . | 4% | . | . | .
COc1ccc(OC)c(CCNC(=O)C(C)n2nc(C)c3c(C)n(-c4ccc(C)cc4)nc3c2=O)c1 (stereo unspecified) | 6.5µM* | ? | -1% | 19% | ? | -1% | ? | 3.7µM*
COc1ccc(OC)c(CCNC(=O)C(C)n2nc(C)c3c(C)n(-c4ccccc4)nc3c2=O)c1 (stereo unspecified) | -14% | 0% | 0% | -2% | 10% | . | . | .
CCOC(=O)N1C(C)CN(/[N+]([O-])=N/Oc2ccc([N+](=O)[O-])cc2[N+](=O)[O-])CC1C (stereo unspecified) | -15% | -20% | . | . | . | . | . | .
C(=C\c1ccnc2ccccc12)/c1cc2c3c(c1)CCCN3CCC2 | . | . | . | . | . | -25% | -16% | 7.3µM*
Oc1ccc(/C=C/c2ccnc3ccccc23)cc1 | ? | ? | ? | . | -32% | . | . | .
Nc1c(Cl)ncnc1N/N=C/c1ccccn1 | 5.2µM* | ? | 12% | ? | -27% | ? | ? | 2.1µM*
COC(=O)C1=C(C)N(Cc2ccccc2)C(=NCC2CC2)N[C@H]1c1ccc(Br)cc1 | . | . | . | -20% | ? | . | . | .
CC(=O)c1ccc(NC(=O)c2nc(-c3ccccc3)n(-c3ccc(Cl)cc3)n2)cc1 | -28% | 0% | 0% | . | 1% | . | . | .
Cc1nn(Cc2ccc(Cl)cc2)c(C)c1NC(=O)c1cc(-c2ccc3c(c2)OCO3)on1 | 4.1µM* | ? | 6% | -6% | 19% | -2% | -10% | 9.2µM*
CCN(CC)S(=O)(=O)c1cc(NC(=O)C(=O)c2c(-c3ccccc3)cc3ccccn23)ccc1C | 5.2µM* | . | 2% | 8% | 30% | 2% | -11% | ?
O=[N+]([O-])c1cc(Cl)cc2c1nc(NCCO)c1ccccc12 | 1.3µM* | ? | 8.9µM* | ? | 4% | -1% | ? | 0.73µM*
O=c1[nH]nc(-c2ccc(NCCO)c([N+](=O)[O-])c2)c2ccccc12 | ? | -13% | 3% | -2% | -41% | . | . | .
Cc1ccc(-c2[nH]ncc2CNCc2ccccc2)cc1 | 2% | 8% | . | . | . | . | . | .
Cc1nn(Cc2ccc(Cl)cc2)c(C)c1NC(=O)CSc1nc2c(c(C(F)(F)F)n1)CCc1ccccc1-2 | 9.2µM* | ? | 0% | 0% | 1% | -8% | ? | ?
Cc1ccc(Cn2nc(C)c(NC(=O)CSc3nc4c(c(C(F)(F)F)n3)CCc3ccccc3-4)c2C)cc1 | 9% | -4% | 0% | -3% | -1% | . | . | .
O=C(COC(=O)c1ccc[nH]c1=O)Nc1ccc(N2CCCCC2)cc1 | 2.3µM* | -1% | -3% | . | . | 11µM* | -1% | 4.1µM*
O=C(COC(=O)c1ccc[nH]c1=O)Nc1ccc(S(=O)(=O)N2CCCC2)cc1 | 0% | -25% | 0% | -10% | -1% | . | . | .
COC(=O)CCn1nnc(-c2cccs2)n1 | 4% | -4% | 2% | -1% | -9% | . | . | .

Continuation:
SMILES | Nrf2 inh | A549 tox-1 | Nrf2 ARE act | Mito fusion yeast | miR-21 FLuc | FLuc counter 3 | A549 tox-2 | ARE-Fluc inh
COC(=O)CCn1nnc(-c2ccc(C(C)C)cc2)n1 | 0.52µM* | -1% | -2% | 10% | 26% | 11µM* | -1% | 0.58µM*
CCn1c(=O)cc(OCC(=O)N2CCN(c3ccccc3OC)CC2)c2ccccc21 | -20% | -9% | 18% | . | 0% | . | . | .
Cn1nc(C(C)(C)C)cc1C(=O)NCc1cc(F)cc2c1OCOC2 | ? | -2% | 0% | 3% | ? | -1% | -9% | 3.7µM*
CCc1nc(N)nc(N)c1-c1ccc(Cl)c([N+](=O)[O-])c1 | 0.37µM* | -1% | 8% | . | . | 1% | -5% | 0.92µM*
CCc1nc(N)nc(N)c1-c1ccc(Cl)c(N=[N+]=[N-])c1 | ? | -6% | 3% | . | . | . | . | .
COc1ccccc1NC(=O)C1=C(C)Nc2nc(SCc3ccccc3)nn2C1c1ccccn1 (stereo unspecified) | -14%[9.27 µM] | 5% | 0% | . | 5% | . | . | .
Cc1ccc(S(=O)(=O)N(Cc2ccccc2)c2ccccc2C(=O)Nc2ccccc2C(=O)NCc2ccco2)cc1 | -20% | 2% | 3% | -1% | -2% | . | . | .
Cc1ccc(S(=O)(=O)N(Cc2ccccc2)c2ccccc2C(=O)NCc2ccco2)cc1 | 5.2µM* | ? | 7% | -2% | 4% | -10% | -17% | 9%
CC(=O)c1ccc(NC(=O)Cn2cc(S(=O)(=O)Cc3cccc(Cl)c3)c3ccccc32)cc1 | ? | -3% | 0% | . | -7% | . | . | .
CCN(Cc1cccc(S(=O)(=O)O)c1)c1ccc(C(=C2C=CC(=[N+](CC)Cc3cccc(S(=O)(=O)O)c3)C=C2)c2ccc(O)cc2S(=O)(=O)O)cc1 | . | . | . | . | . | 9.5µM* | ? | 8.2µM*
CC1=CC(=O)C=C/C1=C(/c1ccc(O)cc1C)c1ccccc1S(=O)(=O)O | 1% | -11% | -1% | -3% | . | . | . | .
COc1ccc(-n2ccnc(NCc3cccs3)c2=O)cc1OC | 0% | 12% | 1% | . | -1% | . | . | .
Cc1ccc(S(=O)(=O)N2C[C@@H]3CCCC[C@@H]3[C@@H](C)[C@H]2c2cn(Cc3ccccc3)c3ccccc23)cc1 | 1.8µM* | -1% | -1% | . | . | 2% | -16% | 2.9µM*

Compound activity deposited in PubChem by National Center for Advancing Translational Sciences (NCATS).
